Biological target: Signal transducer and activator of transcription 3 (Homo sapiens, UniProt P40763)
Assay: Inhibition of STAT3 using fluorescent probe 5-carboxyfluorescein-GpYLPQTV-NH2 after 15 mins by fluorescence polarisation assay

The chains behind the UniProt entries cited, without tags or fusion partners.
UniProt P40763, whole entry: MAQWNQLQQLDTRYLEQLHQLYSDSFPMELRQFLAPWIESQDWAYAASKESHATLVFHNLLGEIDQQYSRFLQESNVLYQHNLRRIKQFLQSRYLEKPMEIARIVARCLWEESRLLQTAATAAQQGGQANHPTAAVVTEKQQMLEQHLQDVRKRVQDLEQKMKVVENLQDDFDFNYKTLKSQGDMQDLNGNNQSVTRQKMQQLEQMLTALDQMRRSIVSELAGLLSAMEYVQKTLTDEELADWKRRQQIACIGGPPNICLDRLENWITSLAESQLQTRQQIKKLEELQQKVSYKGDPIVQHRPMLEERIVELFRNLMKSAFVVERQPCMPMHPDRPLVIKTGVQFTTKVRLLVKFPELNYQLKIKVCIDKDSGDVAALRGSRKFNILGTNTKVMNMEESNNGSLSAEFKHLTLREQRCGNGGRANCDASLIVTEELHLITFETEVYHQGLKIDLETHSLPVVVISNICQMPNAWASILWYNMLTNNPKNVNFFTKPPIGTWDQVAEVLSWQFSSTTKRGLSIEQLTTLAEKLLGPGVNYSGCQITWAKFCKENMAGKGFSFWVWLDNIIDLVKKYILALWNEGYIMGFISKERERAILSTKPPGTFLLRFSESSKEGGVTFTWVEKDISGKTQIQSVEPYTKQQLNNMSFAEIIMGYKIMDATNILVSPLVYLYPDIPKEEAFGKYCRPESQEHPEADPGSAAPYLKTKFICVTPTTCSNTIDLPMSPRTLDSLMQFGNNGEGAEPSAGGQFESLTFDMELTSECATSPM

Ki: 13.3 µM
Compound: CN(C)c1cccc2c(S(=O)(=O)N(C)CC(=O)N(Cc3ccc(C4CCCCC4)cc3)c3ccc(C(=O)O)c(O)c3)cccc12
